Our source for the IC50 values is ChEMBL document CHEMBL1131002, “2beta-Substituted analogues of 4'-iodococaine: synthesis and dopamine transporter binding potencies” (J Med Chem, 1998).

The chains behind the UniProt entries cited, without tags or fusion partners.
UniProt P23977, whole entry: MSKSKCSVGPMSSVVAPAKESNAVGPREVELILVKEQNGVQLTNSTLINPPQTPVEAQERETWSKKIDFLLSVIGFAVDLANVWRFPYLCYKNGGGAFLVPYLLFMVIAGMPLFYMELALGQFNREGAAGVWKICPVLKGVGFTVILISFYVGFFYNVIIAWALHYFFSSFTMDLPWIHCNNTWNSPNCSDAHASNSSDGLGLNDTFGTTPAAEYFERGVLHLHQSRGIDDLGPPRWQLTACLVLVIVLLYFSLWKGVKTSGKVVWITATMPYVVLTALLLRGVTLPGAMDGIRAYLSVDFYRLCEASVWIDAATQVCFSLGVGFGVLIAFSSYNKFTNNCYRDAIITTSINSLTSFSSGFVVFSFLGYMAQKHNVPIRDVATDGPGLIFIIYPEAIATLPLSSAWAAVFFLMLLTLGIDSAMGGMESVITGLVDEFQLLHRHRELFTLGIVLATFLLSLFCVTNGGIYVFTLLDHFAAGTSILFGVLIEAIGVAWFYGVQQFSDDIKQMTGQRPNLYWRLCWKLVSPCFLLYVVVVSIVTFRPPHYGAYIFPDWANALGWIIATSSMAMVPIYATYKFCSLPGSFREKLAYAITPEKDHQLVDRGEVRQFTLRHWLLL

The experiment has as its target Sodium-dependent dopamine transporter (Rattus norvegicus, UniProt P23977). In words: Inhibition of dopamine Transporter Affinity against rat whole brain using [3H]WIN-35428 as radioligand. In kind it is tissue-based.

On to `COC(=O)[C@@H]1C2CCC(C[C@@H]1OC(=O)c1ccc(I)cc1)N2C` (stereo partly specified), for which the IC50 came out at 2520 nM.

By IC50 is commonly meant the concentration that inhibits the measured activity by half.
